The values below are quoted from earlier work in patent publication US20120145955A1, “COMPOSITION OF HCFO-1233zd AND POLYOL BLENDS FOR USE IN POLYURETHANE FOAM” (Arkema Inc., priority 2009, published 2012).

The conditions of the data set: known to the people skilled in the art; cited from earlier work.

`CC(F)(Cl)Cl` [HCFC141b]: the solubility in polyols entry was “much more soluble”.
